# Data reported in publication PMC8958505, “Discovery of Potential Neuroprotective Agents against Paclitaxel-Induced Peripheral Neuropathy” (Journal of Medicinal Chemistry, 2022).
# Structures can show the parent of a compound that is named as a salt.
# Key:
# Opiate κ (OP2, KOP) = Opiate κ (OP2, KOP) (Homo sapiens, UniProt P41145); test: LeadProfilingScreen: Opiate κ (OP2, KOP); type: binding
# Interleukin IL-1 R1 = Interleukin IL-1 R1 (Homo sapiens, UniProt P14778); test: LeadProfilingScreen: Interleukin IL-1 R1; type: binding
# [1] = target: Serotonin (5-Hydroxytryptamine) 5-HT3 (Homo sapiens, UniProt P46098); test: LeadProfilingScreen: Serotonin 5-HT3; type: binding
# Phorbol Ester = test: LeadProfilingScreen: Phorbol Ester; type: binding, mouse; conditions: 10 μM
# Glutamate, Kainate = test: LeadProfilingScreen: Glutamate, Kainate; type: binding, rat; conditions: 10 μM
# CYP 2C9 = target: T1, CYP 2C9 (Homo sapiens, UniProt P11712); test: Cytochrome P450 testing, CYP 2C9; type: in vitro ADME; conditions: diclofenac 4-hydroxylation; read-out: Concentration of inhibition (IC50), CYP 2C9
# T1 construct: host or cells: baculovirus-infected insect cells (supersomes)
# Text: (§1) Cytochrome P450 testing of CN016
# (§2) The effects of CN016 on the activity of six specific human liver cytochrome P450 isozymes (CYP 1A2, 2C9, 2C19, 2D6, 2E1, 3A4) expressed in baculovirus-infected insect cell supersomes were studied. The reactions used to measure the activity of these enzymes were phenacetin O-deethylation (1A2), diclofenac 4-hydroxylation (2C9), mephenytoin 4-hydroxylation (2C19), dextromethorphan O-demethylation (2D6), chlorzoxazone 6-hydroxylation (2E1) and testosterone 6-hydroxylation (3A4).
# (§3) Furafylline, sulfaphenazole, tranylcypromine, quinidine, diethyldithiocarbamate and azamulin were used as reference inhibitors of these enzymes. Incubation mixtures containing no CN016 or reference inhibitors were used as controls. The tested result […]
# (§4) Table S4. Result of Cytochrome P450 testing of CN016
# Potassium Channel [KATP] = Potassium Channel [KATP] (Cricetus cricetus, UniProt Q09427); test: LeadProfilingScreen: Potassium Channel [KATP]; type: binding, hamster; conditions: read-out: Inhibition (%), Potassium Channel [KATP]
# Text: LeadProfilingScreen (Total # of Assays: 67)
# To evaluate, in LeadProfilingScreen, the activity of test compound CN168 (Panlabs # 1251879). […]
# Summary of Significant Results
# Biochemical assay results are presented as the percent inhibition of specific binding or activity throughout the report.
# All other results are expressed in terms of that assay's quantitation method.
# • For primary assays, only the lowest concentration with a significant response judged by the assays' criteria, is […]
# • Where applicable, either the secondary assay results with the lowest dose/concentration meeting the significance […]
# • Unless otherwise requested, primary screening in duplicate with quantitative data (e.g., IC50 ± SEM, Ki ± SEM and nH) are shown where applicable for individual requested assays. In screening packages, primary screening in duplicate with semi-quantitative data (e.g., estimated IC50, Ki and nH) are shown where applicable (concentration range of 4 log units); available secondary functional assays are carried out ([…]) and MEC or MIC determined only if active in primary assays >50% at 1 log unit below initial test concentration. […]
# [2] = system: GABAA, Flunitrazepam, Central; test: LeadProfilingScreen: GABAA, Flunitrazepam, Central; type: binding, rat; conditions: 10 μM
# Nicotinic Acetylcholine = test: 67 off-target study: Nicotinic Acetylcholine (as named in Table S5); type: binding; conditions: 10 μM; item as named in Table S5
# Thyroid Hormone = test: LeadProfilingScreen: Thyroid Hormone; type: binding, rat; conditions: 10 μM
# [3] = target: Epidermal Growth Factor (EGF) (Homo sapiens, UniProt P00533); test: LeadProfilingScreen: Epidermal Growth Factor (EGF); type: binding
# Cannabinoid CB1 = Cannabinoid CB1 (Homo sapiens, UniProt P21554); test: LeadProfilingScreen: Cannabinoid CB1; type: binding
# [4] = system: Glutamate, NMDA, Phencyclidine; test: LeadProfilingScreen: Glutamate, NMDA, Phencyclidine; type: binding, rat; conditions: 10 μM
# Dopamine D3 = Dopamine D3 (Homo sapiens, UniProt P35462); test: LeadProfilingScreen: Dopamine D3; type: binding
# CYP 2C19 = target: T2, CYP 2C19 (Homo sapiens, UniProt P33261); test: Cytochrome P450 testing, CYP 2C19; type: in vitro ADME; conditions: mephenytoin 4-hydroxylation; read-out: Concentration of inhibition (IC50), CYP 2C19
# T2 construct: host or cells: baculovirus-infected insect cells (supersomes)
# Text: as §1, §2, §3, §4
# C57BL/6 mice = test: Rotarod performance test (motor coordination); type: in vivo, mouse; conditions: pretreated CN016 + paclitaxel
# Protocol: Three behavioral models of paclitaxel-induced neuropathy were used to verify the neuroprotective effect of CN016. Namely, thermal and mechanical nociceptive reactions described below were evaluated by tail immersion and von Frey filament tests, respectively, and motor coordination was assessed with the rotarod performance test (Supporting Information, Figure S1A,B). To mimic the clinical therapeutic regimen, CN016 (5, 10 and 20 mg/kg) was administrated to 7-week-old female C57BL/6 mice by intraperitoneal injection (IP) 1 h prior to each injection of paclitaxel (4.5 mg/kg) on four alternate days (days 1, 3, 5, and 7). Each test’s basal level was recorded before treatment, and additional sessions of behavior tests were performed weekly for five weeks (Figure 4A).
# The baseline of every neurological behavior test was measured in 6-week-old C57BL/6J female mice prior to treatment. […] Mechanical hyperalgesia was evaluated by using von Frey filament (#2390, IITC Inc., USA), thermal sensitivity was determined by the tail immersion assay (water temperature: 48–49 °C), and motor coordination was assessed by rotarod (#7750, Ugo Basile Biological Research Apparatus, Italy). After the first drug implantation, the body weight was recorded every 6 days throughout the entire experiment.
# Adenosine A1 = Adenosine A1 (Homo sapiens, UniProt P30542); test: LeadProfilingScreen: Adenosine A1; type: binding
# Sigma σ1 = Sigma σ1 (Homo sapiens, UniProt Q99720); test: LeadProfilingScreen: Sigma σ1; type: binding
# [5] = target: Transporter, Serotonin (5-Hydroxytryptamine) (SERT) (Homo sapiens, UniProt P31645); test: LeadProfilingScreen: Transporter, Serotonin (SERT); type: binding
# Melatonin MT1 = Melatonin MT1 (Homo sapiens, UniProt P48039); test: LeadProfilingScreen: Melatonin MT1; type: binding
compound,measurement,setting,value
"O=P(O)(O)CCN1CCC(Nc2cc(N3CCOCC3)nc(NCc3cn(CCCO)nn3)n2)CC1 [CN016, {2-[4-(2-{[1-(3-Hydroxy-propyl)-1H-[1,2,3]triazol-4-ylmethyl]-amino}-6-morpholin-4-yl-pyrimidin-4-ylamino)-piperidin-1-yl]-ethyl}-phosphonic Acid Hydrobromide Salt]",inhibition at 10 µM,"Opiate κ (OP2, KOP)",3%
same,inhibition at 10 µM,Interleukin IL-1 R1,-3%
same,inhibition at 10 µM,[1],-1%
same,"Inhibition (%), Phorbol Ester",Phorbol Ester,-3%
same,"Inhibition (%), Glutamate, Kainate","Glutamate, Kainate",0%
same,IC50,CYP 2C9,> 100 µM
same,inhibition at 10 µM,Potassium Channel [KATP],-1%
same,"Inhibition (%), GABAA, Flunitrazepam, Central",[2],-5%
same,"Inhibition (%), Nicotinic Acetylcholine",Nicotinic Acetylcholine,-6%
same,"Inhibition (%), Thyroid Hormone",Thyroid Hormone,7%
same,inhibition at 10 µM,[3],-1%
same,inhibition at 10 µM,Cannabinoid CB1,-5%
same,"Inhibition (%), Glutamate, NMDA, Phencyclidine",[4],-4%
same,inhibition at 10 µM,Dopamine D3,-3%
same,IC50,CYP 2C19,> 100 µM
same,motor coordination (rotarod test),C57BL/6 mice,neither paclitaxel treatment nor pretreated CN016 affected motor coordination
same,inhibition at 10 µM,Adenosine A1,-9%
same,inhibition at 10 µM,Sigma σ1,0%
same,inhibition at 10 µM,[5],-4%
same,inhibition at 10 µM,Melatonin MT1,6%
